From ChEMBL document CHEMBL2346548, “Design, synthesis, and structure-activity relationship studies of tryptanthrins as antitubercular agents” (J Nat Prod, 2013)

Test system: Mycobacterium tuberculosis
Experiment: Antitubercular activity against Mycobacterium tuberculosis Erdman ATCC 35801 infected in C57BL/6 mouse assessed as viable bacterial load in lung at 10 mg/kg/day through gavage 5 days per week for 4 weeks starting on 10th day post-infection (reference value: 6.49 +/- 0.10 log10CFU/lung)
Format: functional

CO[C@H]1/C=C/O[C@@]2(C)Oc3c(C)c(O)c4c(O)c(c(/C=N/N5CCN(C)CC5)c(O)c4c3C2=O)NC(=O)/C(C)=C\C=C\[C@H](C)[C@H](O)[C@@H](C)[C@@H](O)[C@@H](C)[C@H](OC(C)=O)[C@@H]1C [RIFAMPIN] was tested, and the log10cfu was 5.75.
